{
  "source": "patent US20190062383A1",
  "about": "(priority 2013, published 2019)",
  "key": {"[1]": {"system": "primary normal human CD4+ T cells"}, "[2]": {"system": "primary normal human CD8+ T cells"}},
  "data": [
    {"smiles": "CC[C@H](C)[C@@H]1NC(=O)[C@H](CCCCN)NC(=O)[C@@H](NC(=O)[C@H](CCCCN)NC(=O)[C@@H](NC(=O)[C@H](CC(N)=O)NC(=O)[C@@H](NC(=O)[C@@H](NC(=O)[C@@H](NC(=O)CN)C(C)C)[C@@H](C)CC)[C@@H](C)CC)C(C)C)CSSC[C@@H]2NC(=O)[C@H](CCCCN)NC(=O)CNC(=O)[C@H](Cc3ccccc3)NC(=O)[C@H](CCCNC(=N)N)NC(=O)[C@H](CCSC)NC(=O)CNC(=O)[C@H](C)NC(=O)[C@H](CCCCN)NC(=O)[C@H](CCCCN)NC(=O)[C@@H]3CSSC[C@@H](C(=O)N[C@H](C(=O)N4CCC[C@H]4C(=O)N[C@@H](CCCCN)C(=O)O)[C@@H](C)O)NC(=O)[C@H](Cc4c[nH]cn4)NC(=O)[C@H](CSSC[C@H](NC(=O)[C@H](CCC(N)=O)NC(=O)[C@H](CCCNC(=N)N)NC(=O)[C@H](CO)NC1=O)C(=O)N[C@@H](CC(C)C)C(=O)N[C@@H](CCC(=O)O)C(=O)N1CCC[C@H]1C(=O)N3)NC(=O)[C@H](CCCCN)NC(=O)CNC(=O)[C@H](CC(N)=O)NC(=O)[C@H](CCSC)NC2=O", "note": "[OsK1]", "values": [
      {"measurement": "IC50", "setting": "[1]", "value": 0.03, "unit": "nM"},
      {"measurement": "IC50", "setting": "[2]", "value": 0.03, "unit": "nM"}
    ]}
  ]
}
